{"source": "patent US7700122B1", "about": "“Topical compositions comprising an opioid analgesic and an NMDA antagonist” (Memorial Sloan-Kettering Cancer Center, priority 1998, dated 2010)", "data": [{"substance": "[^125I]Morphine [^125I-Morphine]", "values": [{"measurement": "radioactivity in blood, brain or spinal cord", "setting": "mouse, in vivo", "value": "no detectable levels of radioactivity"}, {"measurement": "radioactivity in proximal unexposed tail relative to immersed distal tail", "setting": "mouse, in vivo", "value": "< 1", "unit": "%"}, {"measurement": "Radioactivity, Brain", "setting": "tail immersed 3 min in 100 μCi/ml in DMSO, sampled within 5 min", "value": "55 ± 26", "unit": "cpm/g"}]}]}
